Test results published in PubChem BioAssay (NCI).
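Values below derive from 48-hour exposures of cells grown in 96-well plates, with endpoints linearly interpolated between the two concentrations bracketing the appropriate inhibition level. TGI marks complete inhibition of growth.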

Assays:
Assay in all cases: DTP human tumour cell line panel, 48 h
786-0 renal = system: 786-0 renal
A498 renal = system: A498 renal
A549 NSCLC = system: A549 NSCLC
ACHN renal = system: ACHN renal
BT-549 breast = system: BT-549 breast
CAKI-1 renal = system: CAKI-1 renal
CCRF-CEM leukemia = system: CCRF-CEM leukemia
COLO 205 colon = system: COLO 205 colon
DU-145 prostate = system: DU-145 prostate
EKVX NSCLC = system: EKVX NSCLC
HCT-116 colon = system: HCT-116 colon
HCT-15 colon = system: HCT-15 colon
HOP-62 NSCLC = system: HOP-62 NSCLC
HOP-92 NSCLC = system: HOP-92 NSCLC
HT29 colon = system: HT29 colon
IGROV1 ovarian = system: IGROV1 ovarian
K-562 leukemia = system: K-562 leukemia
KM12 colon = system: KM12 colon
LOX IMVI melanoma = system: LOX IMVI melanoma
M14 melanoma = system: M14 melanoma
MALME-3M melanoma = system: MALME-3M melanoma
MCF7 breast = system: MCF7 breast
MDA-MB-231 breast = system: MDA-MB-231 breast
MDA-MB-435 = system: MDA-MB-435
MDA-N = system: MDA-N
MOLT-4 leukemia = system: MOLT-4 leukemia
NCI-H23 lung = system: NCI-H23 lung
NCI-H322M lung = system: NCI-H322M lung
NCI-H460 lung = system: NCI-H460 lung
NCI/ADR-RES ovarian = system: NCI/ADR-RES ovarian
OVCAR-3 ovarian = system: OVCAR-3 ovarian
OVCAR-4 ovarian = system: OVCAR-4 ovarian
OVCAR-5 ovarian = system: OVCAR-5 ovarian
OVCAR-8 ovarian = system: OVCAR-8 ovarian
PC-3 prostate = system: PC-3 prostate
RPMI-8226 leukemia = system: RPMI-8226 leukemia
RXF 393 renal = system: RXF 393 renal
SF-268 CNS = system: SF-268 CNS
SF-295 CNS = system: SF-295 CNS
SK-MEL-2 melanoma = system: SK-MEL-2 melanoma
SK-MEL-28 melanoma = system: SK-MEL-28 melanoma
SK-MEL-5 melanoma = system: SK-MEL-5 melanoma
SK-OV-3 ovarian = system: SK-OV-3 ovarian
SN12C renal = system: SN12C renal
SNB-19 CNS = system: SNB-19 CNS
SNB-75 CNS = system: SNB-75 CNS
SR leukemia = system: SR leukemia
SW-620 colon = system: SW-620 colon
T-47D breast = system: T-47D breast
TK-10 renal = system: TK-10 renal
U251 CNS = system: U251 CNS
UACC-257 melanoma = system: UACC-257 melanoma
UACC-62 melanoma = system: UACC-62 melanoma
UO-31 renal = system: UO-31 renal

**Q.** Which TGI (786-0 renal) does the source give for `CN(C(=O)COc1ccc(Cl)c(Cl)c1)C1CCCC[C@@H]1N1CCCC1` (some centres undefined) here?
**A.** > 100 µM

**Q.** What about the TGI (A498 renal) of the same compound?
**A.** > 100 µM

**Q.** What about the TGI (A549 NSCLC) of the same compound?
**A.** > 100 µM

**Q.** What about the TGI (ACHN renal) of the same compound?
**A.** > 100 µM

**Q.** And the TGI (BT-549 breast)?
**A.** > 100 µM

**Q.** What about the TGI (CAKI-1 renal) of the same compound?
**A.** > 100 µM

**Q.** What about the TGI (CCRF-CEM leukemia) of the same compound?
**A.** > 100 µM

**Q.** And the TGI (COLO 205 colon)?
**A.** > 100 µM

**Q.** And the TGI (DU-145 prostate)?
**A.** > 100 µM

**Q.** And the TGI (EKVX NSCLC)?
**A.** > 100 µM

**Q.** And the TGI (HCT-116 colon)?
**A.** > 100 µM

**Q.** And the TGI (HCT-15 colon)?
**A.** > 100 µM

**Q.** What about the TGI (HOP-62 NSCLC) of the same compound?
**A.** > 100 µM

**Q.** And the TGI (HOP-92 NSCLC)?
**A.** > 100 µM

**Q.** And the TGI (HT29 colon)?
**A.** > 100 µM

**Q.** What about the TGI (IGROV1 ovarian) of the same compound?
**A.** > 100 µM

**Q.** What about the TGI (K-562 leukemia) of the same compound?
**A.** > 100 µM

**Q.** And the TGI (KM12 colon)?
**A.** > 100 µM

**Q.** What about the TGI (LOX IMVI melanoma) of the same compound?
**A.** > 100 µM

**Q.** And the TGI (M14 melanoma)?
**A.** 36.8 µM

**Q.** What about the TGI (MALME-3M melanoma) of the same compound?
**A.** > 100 µM

**Q.** And the TGI (MCF7 breast)?
**A.** > 100 µM

**Q.** And the TGI (MDA-MB-231 breast)?
**A.** > 100 µM

**Q.** What about the TGI (MDA-MB-435) of the same compound?
**A.** > 100 µM

**Q.** And the TGI (MDA-N)?
**A.** > 100 µM

**Q.** And the TGI (MOLT-4 leukemia)?
**A.** > 100 µM

**Q.** And the TGI (NCI-H23 lung)?
**A.** > 100 µM

**Q.** And the TGI (NCI-H322M lung)?
**A.** > 100 µM

**Q.** What about the TGI (NCI-H460 lung) of the same compound?
**A.** > 100 µM

**Q.** What about the TGI (NCI/ADR-RES ovarian) of the same compound?
**A.** > 100 µM

**Q.** And the TGI (OVCAR-3 ovarian)?
**A.** > 100 µM

**Q.** What about the TGI (OVCAR-4 ovarian) of the same compound?
**A.** > 100 µM

**Q.** What about the TGI (OVCAR-5 ovarian) of the same compound?
**A.** > 100 µM

**Q.** And the TGI (OVCAR-8 ovarian)?
**A.** > 100 µM

**Q.** And the TGI (PC-3 prostate)?
**A.** > 100 µM

**Q.** And the TGI (RPMI-8226 leukemia)?
**A.** > 100 µM

**Q.** What about the TGI (RXF 393 renal) of the same compound?
**A.** > 100 µM

**Q.** What about the TGI (SF-268 CNS) of the same compound?
**A.** > 100 µM

**Q.** What about the TGI (SF-295 CNS) of the same compound?
**A.** > 100 µM

**Q.** What about the TGI (SK-MEL-2 melanoma) of the same compound?
**A.** > 100 µM

**Q.** And the TGI (SK-MEL-28 melanoma)?
**A.** > 100 µM

**Q.** What about the TGI (SK-MEL-5 melanoma) of the same compound?
**A.** 29.2 µM

**Q.** And the TGI (SK-OV-3 ovarian)?
**A.** > 100 µM

**Q.** What about the TGI (SN12C renal) of the same compound?
**A.** > 100 µM

**Q.** And the TGI (SNB-19 CNS)?
**A.** > 100 µM

**Q.** And the TGI (SNB-75 CNS)?
**A.** > 100 µM

**Q.** What about the TGI (SR leukemia) of the same compound?
**A.** > 100 µM

**Q.** And the TGI (SW-620 colon)?
**A.** > 100 µM

**Q.** What about the TGI (T-47D breast) of the same compound?
**A.** > 100 µM

**Q.** What about the TGI (TK-10 renal) of the same compound?
**A.** > 100 µM

**Q.** And the TGI (U251 CNS)?
**A.** > 100 µM

**Q.** And the TGI (UACC-257 melanoma)?
**A.** > 100 µM

**Q.** What about the TGI (UACC-62 melanoma) of the same compound?
**A.** > 100 µM

**Q.** What about the TGI (UO-31 renal) of the same compound?
**A.** > 100 µM
